Test results as given in patent publication US11771694B2, “Arylamide compounds for treatment and prevention of viral infections” (priority 2020, dated 2023).

Test system: S. aureus

CC[C@H](C)[C@H](NC(=O)CN)C(=O)NCC(=O)N[C@@H](C)C(=O)N[C@H](C(=O)N[C@@H](CC(C)C)C(=O)N[C@@H](CCCCN)C(=O)N[C@H](C(=O)N[C@@H](CC(C)C)C(=O)N[C@H](C(=O)N[C@H](C(=O)NCC(=O)N[C@@H](CC(C)C)C(=O)N1CCC[C@H]1C(=O)N[C@@H](C)C(=O)N[C@@H](CC(C)C)C(=O)N[C@H](C(=O)N[C@@H](CO)C(=O)N[C@@H](Cc1c[nH]c2ccccc12)C(=O)N[C@H](C(=O)N[C@@H](CCCCN)C(=O)N[C@@H](CCCNC(=N)N)C(=O)N[C@@H](CCCCN)C(=O)N[C@@H](CCCNC(=N)N)C(=O)N[C@@H](CCC(N)=O)C(=O)N[C@@H](CCC(N)=O)C(N)=O)[C@@H](C)CC)[C@@H](C)CC)[C@@H](C)O)[C@@H](C)O)C(C)C)C(C)C [melittin]
MIC S. aureus: 2 mg/L (≈ 0.703 µM)

In brackets after ≈: the same amount, converted by molar mass.
